The assay addresses recombinant HLA-G (TP305216, OriGene) (human, UniProt P17693 25-308). Briefly: ELISA.

B1: HLA-G Nb#1 (VHH)
VHH: EVQLVESGGGSVQAGGSLRLSCDASKYTYFRNCMGWFRQVPGAEREGVATIDSAGGTSYADFVKGRFTISRDNAKTALYLQMNSLKPEDTAMYYCFGGSWYKGSCIYEYNYWGQGTQVTVSS
As usually defined, the IC50 is the point on the concentration scale where inhibition reaches its midpoint. B1: the IC50 was roughly 75.2 nM.

B2: HLA-G Nb#2 (VHH)
VHH: HVQLVESGGGSVQAGGSLKLSCVTSAYTFSASGNCMGWLRQAPGKGREGIAATYTRSAKTYYADSVKGRFTISQDNAKNTVYLQMNGLKPEDTATYYCAVARCAGRPDRSTLTSFAWWGQGTQVTVSS
Regarding B2, the IC50 was roughly 45.7 nM.

The values are drawn from paper PMC10265101 (2023).
